Results taken from US9266834B2, “1, 4-disubstituted 3-cyano-pyridone derivatives and their use as positive allosteric modulators of MGLUR2-receptors” (JANSSEN PHARMACEUTICALS, INC., priority 2006, dated 2016).

Amino acid sequences for entries named in this document (tags omitted). Residues count along the entry.
UniProt Q14416, 19-872 limits assumed: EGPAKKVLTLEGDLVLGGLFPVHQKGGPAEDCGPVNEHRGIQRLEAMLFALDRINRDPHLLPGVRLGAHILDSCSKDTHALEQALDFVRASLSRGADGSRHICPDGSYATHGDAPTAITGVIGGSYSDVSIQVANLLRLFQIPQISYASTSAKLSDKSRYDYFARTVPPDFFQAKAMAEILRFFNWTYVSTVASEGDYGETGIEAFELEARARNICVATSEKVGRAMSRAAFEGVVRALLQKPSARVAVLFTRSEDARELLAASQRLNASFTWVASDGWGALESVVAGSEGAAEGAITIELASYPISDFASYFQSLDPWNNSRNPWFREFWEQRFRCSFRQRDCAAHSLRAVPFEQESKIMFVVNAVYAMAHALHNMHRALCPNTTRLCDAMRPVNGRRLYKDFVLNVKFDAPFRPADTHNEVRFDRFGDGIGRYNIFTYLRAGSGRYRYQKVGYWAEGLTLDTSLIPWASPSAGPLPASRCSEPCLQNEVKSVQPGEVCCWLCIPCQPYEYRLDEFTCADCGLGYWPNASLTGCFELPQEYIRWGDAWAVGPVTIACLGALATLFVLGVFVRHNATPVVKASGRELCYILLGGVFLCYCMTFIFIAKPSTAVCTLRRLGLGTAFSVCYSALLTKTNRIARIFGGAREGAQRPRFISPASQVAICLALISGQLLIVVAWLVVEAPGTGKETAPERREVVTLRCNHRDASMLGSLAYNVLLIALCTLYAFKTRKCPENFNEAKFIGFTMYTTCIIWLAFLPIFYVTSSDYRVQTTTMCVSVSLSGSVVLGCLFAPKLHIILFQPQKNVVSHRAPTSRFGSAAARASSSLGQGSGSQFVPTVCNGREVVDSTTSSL

Target: human mGluR2 receptor (Homo sapiens, UniProt Q14416)
Assay: [35S]GTPγS binding assay (GTPγS-PAM): positive allosteric modulation in presence of glutamate at EC25, membranes from transfected CHO cells
Details: in presence of mGluR2 agonist glutamate at predetermined EC25 concentration, averages of duplicate values of 11-concentration response curves
Description: The compounds provided in the present invention are positive allosteric modulators of mGluR2. These compounds appear to potentiate glutamate responses by binding to an allosteric site other than the glutamate binding site. The response of mGluR2 to a concentration of glutamate is increased when compounds of Formula (I) are present. Compounds of Formula (I) are expected to have their effect substantially at mGluR2 by virtue of their ability to enhance the function of the receptor. The behaviour of positive allosteric modulators tested at mGluR2 using the [^35S]GTPγS binding assay method described below and which is suitable for the identification of such compounds, and more particularly the compounds according to Formula (I), are shown in Table 4.
[^35S]GTPγS Binding Assay
The [^35S]GTPγS binding is a functional membrane-based assay used to study G-protein coupled receptor (GPCR) function whereby incorporation of a non-hydrolysable form of GTP, [^35S]GTPγS (guanosine 5′-triphosphate, labelled with […] ^35S), is measured. The G-protein o subunit catalyzes the exchange of guanosine 5′-diphosphate (GDP) by guanosine triphosphate (GTP) and on activation of the GPCR by an agonist, [^35S]GTPγS, becomes incorporated and cannot be cleaved to continue the exchange cycle (Harper (1998) Current Protocols in Pharmacology 2.6.1-10, John Wiley & Sons, Inc.). […] Here we describe the use of the [^35S]GTPγS binding assay using membranes from cells transfected with the human mGluR2 receptor and adapted from Schaffhauser et al ((2003) Molecular Pharmacology 4:798-810) for the detection of the positive allosteric modulation (PAM) properties of the compounds of this invention.
CHO-cells were cultured to pre-confluence and stimulated with 5 mM butyrate for 24 hours, prior to washing in PBS, and then collection by scraping in homogenisation buffer (50 mM Tris-HCl buffer, pH 7.4, 4° C.). Cell lysates were homogenized briefly (15 s) using an ultra-turrax homogenizer. The homogenate was centrifuged at 23 500×g for 10 minutes and the supernatant discarded. The pellet was resuspended in 5 mM Tris-HCl, pH 7.4 and centrifuged again (30 000×g, 20 min, 4° C.). The final pellet was resuspended in 50 mM HEPES, pH 7.4 and stored at −80° C. in appropriate aliquots before use. Protein concentration was determined by the Bradford method (Bio-Rad, USA) with bovine serum albumin as standard.
Measurement of mGluR2 positive allosteric modulators in membranes containing human mGluR2 was performed using frozen membranes that were thawed and briefly homogenised prior to pre-incubation in 96-well microplates (15 μg/assay well, 30 minutes, 30° C.) in assay buffer (50 mM HEPES pH 7.4, 100 mM NaCl, 3 mM MgCl2, 50 μM GDP, 10 μg/ml saponin,) with increasing concentrations of positive allosteric modulator (from 0.3 nM to 50 μM) and either a minimal pre-determined concentration of glutamate (PAM assay), or no added glutamate. For the PAM assay, membranes were pre-incubated with glutamate at EC25 concentration, i.e. a concentration that gives 25% of the maximal response glutamate, and is in accordance to published data (Pin et al. (1999) Eur. J. Pharmacol. 375:277-294). After addition of [^35S]GTPγS (0.1 nM, f.c.) to achieve a total reaction volume of 200 μl, microplates were shaken briefly and further incubated to allow [^35S]GTPγS incorporation on activation (30 minutes, 30° C.). The reaction was stopped by rapid vacuum filtration over glass-fibre filter plates (Unifilter 96-well GF/B filter plates, Perkin-Elmer, Downers Grove, USA) microplate using a 96-well plate cell harvester (Filtermate, Perkin-Elmer, USA), and then by washing three times with 300 μl of ice-cold wash buffer (Na2PO4.2H2O 10 mM, NaH2PO4.H2O 10 mM, pH=7.4). Filters were then air-dried, and 40 μl of liquid scintillation cocktail (Microscint-O) was added to each well, and membrane-bound [^35S]GTPγS was measured in a 96-well scintillation plate reader (Top-Count, Perkin-Elmer, USA). […]

Point of comparison: `CC(C)CCn1ccc(-c2ccc(N3CCOCC3)c(O)c2)c(C#N)c1=O`, “GTPgS - hR2 PAM pEC50” value 5.9. Against it:
- CC(C)CCn1ccc(-c2ccc3c(c2)OCCN3C)c(C#N)c1=O — higher, 6.7
- CC(C)CCn1ccc(Nc2cc(-c3ccccc3)no2)c(C#N)c1=O — higher, 6.3
- CCCCn1ccc(-c2ccc3c(cnn3Cc3cccnc3)c2)c(C#N)c1=O — within 0.2 log units, 6.0
- CC(C)CCn1ccc(N2CCC(N(C)Cc3cccc(C(F)(F)F)c3)C2)c(C#N)c1=O (centres unmarked) — lower, 5.7
- CC(C)CCn1ccc(-c2ccc3nn(Cc4ccncc4)cc3c2)c(C#N)c1=O — lower, 5.6
- CC(C)CCn1ccc(-c2ccc(CCCO)nc2)c(C#N)c1=O — lower, 5.2
- CC(C)CCn1ccc(N2CCC3(CC2)CN(Cc2cccc(C(F)(F)F)c2)C3)c(C#N)c1=O — lower, 5.7
- COc1ccc(-c2ccn(CCC(C)C)c(=O)c2C#N)cn1 — lower, 5.1
- CC(C)CCn1ccc(-c2ccc3c(ccn3C)c2)c(C#N)c1=O — higher, 6.9
- CC(C)CCn1ccc(OCc2ccc(OC(F)(F)F)cc2)c(C#N)c1=O — higher, 6.9
- CC(C)CCn1ccc(N2CCC3=C(Cc4ccc(F)cc43)C2)c(C#N)c1=O — higher, 6.7
- CC(C)CCn1ccc(N(C)C2CN(C(c3ccccc3)c3ccccc3)C2)c(C#N)c1=O — higher, 6.7
- CC(C)CCn1ccc(-c2cnn(Cc3ccccc3)c2)c(C#N)c1=O — higher, 6.3
